Values quoted from earlier work, collected in patent US9329190B2 (The General Hospital Corporation, priority 2011, dated 2016).

Settings: in circulation

vitamin D
fraction of circulating hormone bound to albumin: 10-15%
fraction of circulating hormone bound to vitamin D binding protein: 85-90%
